Data as given in ChEMBL document CHEMBL5154664, “Imidazolylacetophenone oxime-based multifunctional neuroprotective agents: Discovery and structure-activity relationships” (Eur J Med Chem, 2022).

Experiment: Antioxidant activity assessed as DPPH radical scavenging activity at 20 uM incubated for 30 mins under dark condition by microplate reader based assay
Format: functional

O=C1O[C@H]([C@@H](O)CO)C(O)=C1O
Activity: 96.2%
